{"sequences": {"note": "Chains of the proteins cited; added tags and fusions are not shown.", "UniProt Q9ERM3, whole entry": "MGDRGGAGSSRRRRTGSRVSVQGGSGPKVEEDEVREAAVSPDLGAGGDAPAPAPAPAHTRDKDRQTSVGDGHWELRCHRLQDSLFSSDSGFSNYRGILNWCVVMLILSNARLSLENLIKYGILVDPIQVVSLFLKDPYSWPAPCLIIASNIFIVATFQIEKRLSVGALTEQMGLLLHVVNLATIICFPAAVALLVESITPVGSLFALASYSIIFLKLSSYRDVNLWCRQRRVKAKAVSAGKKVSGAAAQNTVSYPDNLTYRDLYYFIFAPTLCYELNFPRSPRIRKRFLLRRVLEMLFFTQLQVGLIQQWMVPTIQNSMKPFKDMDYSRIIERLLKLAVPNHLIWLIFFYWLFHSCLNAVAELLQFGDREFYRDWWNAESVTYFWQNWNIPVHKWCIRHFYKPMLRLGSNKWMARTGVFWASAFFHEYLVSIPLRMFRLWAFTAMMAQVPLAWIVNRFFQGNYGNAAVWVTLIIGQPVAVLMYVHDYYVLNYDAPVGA", "UniProt Q96PD7, whole entry": "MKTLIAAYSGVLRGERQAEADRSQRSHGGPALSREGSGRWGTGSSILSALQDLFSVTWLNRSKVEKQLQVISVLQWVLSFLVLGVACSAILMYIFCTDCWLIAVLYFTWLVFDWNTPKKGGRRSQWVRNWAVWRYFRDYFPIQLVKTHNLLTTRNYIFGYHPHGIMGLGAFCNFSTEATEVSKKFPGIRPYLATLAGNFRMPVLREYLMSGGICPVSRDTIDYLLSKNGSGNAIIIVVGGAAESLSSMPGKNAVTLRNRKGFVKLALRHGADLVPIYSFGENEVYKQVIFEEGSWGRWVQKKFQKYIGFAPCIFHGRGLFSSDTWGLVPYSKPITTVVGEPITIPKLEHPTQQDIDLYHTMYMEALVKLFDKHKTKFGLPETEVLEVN"}, "source": "patent US8906952B2", "about": "“Indole derivative or pharmaceutically acceptable salt thereof, preparation method thereof, and pharmaceutical composition for preventing or treating metabolic diseases containing same as active ingredient” (Korea Research Institute of Bioscience and Biotechnology, priority 2011, dated 2014)", "key": {"DGAT-1 (rat liver)": {"molecular_target": "DGAT-1 (rat liver) (Rattus norvegicus, UniProt Q9ERM3)", "experiment": "DGAT enzyme inhibition test, rat liver-derived DGAT enzyme", "details": "read-out: DGAT-1 (rat liver) IC50; rat liver microsomal protein", "description": "(§1) To investigate inhibitory effect of the compounds of Examples 1-33 against DGAT enzyme activity, DGAT enzyme inhibition and DGAT2 selectivity were investigated using zymogen including:\n3) rat liver-derived DGAT enzyme.\n(§2) To be specific, for the purpose of measuring human-derived DGAT enzyme inhibitory activity, using the zymogen, including enzymes derived from insect cell overexpressing human DGAT1 and DGAT2 (‘sf9’), microsomal protein isolated from human duodenal adenocarcinoma (‘Hutu 80’), and microsomal protein isolated from rat, and according to Coleman et al., (Methods Enzymol., 98-103, 1992), and substrate including 1,2-diacylglycerol(Sigma, D0138) and [^14C]palmitoyl-CoA (Amersham, CFA583), the amount of radiation of [^14C]triacylglycerol produced after enzymatic reaction was measured.\n(§3) To be more specific, to the reaction solution containing 175 mM Tris-HCl (pH 8.0), 20 μl bovine serum albumin (10 mg/ml), 100 mM magnesium chloride, 30 μM [^14C]palmitoyl CoA (0.02 μCi, Amersham) and 200 μM 1,2-dioleoylglycerol, reagent dissolved in dimethylsulfoxide (10.0 μl) was added. […] After taking 0.65 ml supernatant from the decoction, the amount of radiation was measured with liquid scintillation counter (LSC). The DGAT inhibitory activity was calculated with Mathematical Expression 1 below: […]"}, "hDGAT-1 (HuTu 80)": {"molecular_target": "hDGAT-1 (HuTu 80) (Homo sapiens, UniProt O75907)", "experiment": "DGAT enzyme inhibition test, microsomal protein from human duodenal adenocarcinoma (Hutu 80)", "details": "read-out: hDGAT-1 (HuTu 80) IC50; microsomal protein from HuTu 80", "description": "as §1\n2) DGAT enzyme derived from human duodenal adenocarcinoma (‘Hutu 80’), and\nas §2, §3"}, "human DGAT2": {"molecular_target": "human DGAT2 (Homo sapiens, UniProt Q96PD7)", "experiment": "DGAT enzyme inhibition test, hDGAT2 enzyme from sf9 insect cells (DGAT2 selectivity)", "details": "enzyme from sf9 cells overexpressing hDGAT2", "description": "as §1\n(§4) 1) hDGAT1 and hDGAT2 enzymes, derived from insect cell overexpressing human DGAT1 and DGAT2 (‘sf9’), respectively,\nas §2, §3"}, "HepG2 cells": {"test_system": "HepG2 cells", "experiment": "DGAT inhibitory effect in HepG2 cells (triglyceride production from [14C]glycerol)", "details": "DMSO control = 100", "experimental": "To investigate inhibition effect on intracellular DGAT enzyme activity of the compounds obtained in Examples 1-51, intracellular DGAT enzyme activity was measured using human-derived liver HepG2 cells.\nHepG2 cells were purchased from ATCC, and cultured in 37° C., 5% CO2 incubator including minimum essential medium (2 mM L-glutamine, earle's BSS adjusted to contain 1.5 g/L sodium bicarbonate, 0.1 mM nonessential amino acids, and 1 mM sodium pyruvate) added with 10% fetal bovine serum (FBS) and 1% antibiotic (100 U/ml penicillin and 100 µg/ml streptomycin).\nThe intracellular DGAT enzyme activity was measured based on an amount of triglycerides produced in the cultured HepG2 cells, by adding 10 μM enzyme inhibitor compounds obtained in Examples 1-51, respectively, and then determining the effect of the enzyme inhibitors according to reduction rate of the triglyceride production.\nSpecifically, cells were seeded 1×10^6 cell/ml per well of the 24 well culture plate, and 24 hours after incubation, medium was exchanged with FBS-free DMEM medium, and sample of 0.2 mCi [^14C]glycerol (Amersham) was added as substrate, and the reaction was allowed to occur for 6 hr. The induced production of triglyceride was catalyzed by the DGAT enzyme, and DGAT enzyme activity was determined based on the amount of production of triglyceride which was measured based on the amount of radiation. […]"}, "human DGAT1": {"molecular_target": "human DGAT1 (Homo sapiens, UniProt O75907)", "experiment": "DGAT enzyme inhibition test, hDGAT1 enzyme from sf9 insect cells", "details": "read-out: hDGAT-1 (sf9) IC50; enzyme from sf9 cells overexpressing hDGAT1", "description": "as §1, §4, §2, §3"}}}
{"smiles": "COCCOc1ccc(C(=O)NN(C(=O)/C=C/c2cn(C(=O)OC(C)(C)C)c3ccccc23)C(C)C)cc1", "values": [{"measurement": "IC50", "setting": "DGAT-1 (rat liver)", "result": 3.7, "unit": "µM"}, {"measurement": "IC50", "setting": "hDGAT-1 (HuTu 80)", "result": 10, "unit": "µM"}, {"measurement": "hDGAT-2 (sf9) inhibition rate(%)at 10 μM", "setting": "human DGAT2", "result": "— (—: no inhibition)"}, {"measurement": "Triglyceride production rate (%)/HepG2 cells at 10 μM", "setting": "HepG2 cells", "result": 72.6, "unit": "%"}, {"measurement": "IC50", "setting": "human DGAT1", "result": "> 100", "unit": "µM"}]}
